High-throughput results deposited in PubChem by ICCB-Longwood Screening Facility, Harvard Medical School.
HCMV UL50-53 inh: disrupts HCMV UL50-UL53 complex binding; inhibition, % (no concentration beside the values); AID 1918969; 190,000 compounds, 0.15% hits; HTRF UL50-UL53 interaction, normalized percent inhibition; in the data active means inhibition above about 27%, passing the limit was not always enough
GIV-Gai inh: inhibitors of GIV peptide binding to Galpha-i3, primary screen, biochemical, fluorescence polarization, FITC-GIV GBA peptide, rat Galphai3 | 90 min; stronger effect = lower value; scaled: aluminum fluoride 0%, vehicle 100% | AID 1224905, 2016 | 210,000 compounds, 0.42% hits | percent of control (FP), % (concentration not given with the values) | Guanine nucleotide-binding protein G(i) subunit alpha-3 (Rattus norvegicus), P08753;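 active = replicate mean at 85% of control or lower, very high polarization wells dropped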;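 note: wells of about 15 µL received 100 nL stock; the first replicate is given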
GIV Gai FP conf: confirmation of inhibitors of GIV binding to rat Galpha-i3; FITC-GIV peptide binding to Galphai3, fluorescence polarization; active compounds read low; fluorescence polarization, mP at 100 µM; 580 compounds, 38% hits; shares compounds with GIV-Gai inh;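 active means inhibition score of 15 or more, meaning 100 minus mean polarization as percent of control over three replicates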;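 further: lower mP means peptide displaced from Galphai3 so more inhibition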
GIV-Gai AS conf: confirmation of inhibitors of GIV binding to human Galpha-i3; shares compounds with GIV-Gai inh; AlphaScreen Galphai3-GIV binding, purified proteins, 90 min; active compounds read low; AlphaScreen counts at 100 µM; 580 compounds, 39% hits; AID 1259351;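 active means inhibition score at or above a set limit, where the score is 100 minus the three-replicate mean percent of control signal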
An asterisk follows results filed as active. Rows were chosen to be rich in hits. Some 0.46% of all compounds tested hit in one or more screens of this group.

Chains of the proteins cited; added tags and fusions are not shown.
Guanine nucleotide-binding protein G(i) subunit alpha-3 (Rattus norvegicus), P08753, UniProt P08753, whole entry, looked up: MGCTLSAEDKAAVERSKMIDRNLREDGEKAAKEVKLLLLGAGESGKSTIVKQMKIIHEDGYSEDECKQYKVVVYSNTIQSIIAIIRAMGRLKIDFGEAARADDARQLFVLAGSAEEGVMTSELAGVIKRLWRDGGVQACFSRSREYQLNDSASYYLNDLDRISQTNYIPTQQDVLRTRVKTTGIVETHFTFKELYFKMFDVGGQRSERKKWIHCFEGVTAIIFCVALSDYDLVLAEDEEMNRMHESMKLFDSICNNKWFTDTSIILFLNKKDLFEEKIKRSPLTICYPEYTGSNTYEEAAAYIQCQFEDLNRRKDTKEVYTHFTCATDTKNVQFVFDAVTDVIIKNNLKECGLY

Cc1cc2nc(C)c(CCC(=O)N3CCN(Cc4ccc(C(C)C)cc4)CC3)c(C)n2n1 was read as HCMV UL50-53 inh -5.
COc1ccccc1Nc1nc2ccc(C)cc2n2nnnc12 was read as HCMV UL50-53 inh -19, GIV-Gai inh 74*, GIV Gai FP conf 69 and GIV-Gai AS conf 51081.
`CCOC(=O)c1ccccc1Nc1nc2ccc(C)cc2n2nnnc12` gave HCMV UL50-53 inh -6 and GIV-Gai inh 107.
Nc1ccc2c(c1)CCC2=O was read as HCMV UL50-53 inh -21 and GIV-Gai inh 144.
`O=C1CC(=O)c2ccc3c4c(ccc1c24)C(=O)CC3=O` gave HCMV UL50-53 inh -46, GIV-Gai inh 74*, GIV Gai FP conf 53* and GIV-Gai AS conf 2272*.
CCN1CCN(CCNC(=O)c2ccc(NC(=O)N3CCSc4nc(C)cc(C)c43)cc2)CC1 was read as HCMV UL50-53 inh 3 and GIV-Gai inh 100.
CCSc1nc2ccc(NS(=O)(=O)c3c(C)n[nH]c3C)cc2s1 was read as GIV-Gai inh 108.
`Cc1nn(-c2ccc(Cl)cc2)c2sc(C(=O)NC3CCCc4ccccc43)cc12` (stereo not given) gave GIV-Gai inh 102.
Screening Cc1nn(-c2ccccc2)c2sc(C(=O)NC(=S)NC3CCSC3=O)cc12 (stereo not given) returned GIV-Gai inh 85*, GIV Gai FP conf 64 and GIV-Gai AS conf 15795*.
Screening COc1ccc(-c2ccc3cc(Cl)ccc3n2)c(OC)c1 returned HCMV UL50-53 inh -24.
For CCN(CC)CCCC(C)Nc1c2ccc(Cl)cc2nc2ccc(OC)cc12 (stereo not given) the results were HCMV UL50-53 inh -62, GIV-Gai inh 44*, GIV Gai FP conf 41* and GIV-Gai AS conf 32214.
`CCOC(=O)c1ccccc1NC(=O)Cn1c(=O)n(Cc2ccc(F)cc2)c(=O)c2sc3ccccc3c21` gave HCMV UL50-53 inh -4 and GIV-Gai inh 99.
For O=c1[nH]c(CSc2ccccn2)nc2ccsc12 the results were HCMV UL50-53 inh -10.
For O=c1[nH]cc(NCCO)c(=O)[nH]1 the results were HCMV UL50-53 inh -7, GIV-Gai inh 66*, GIV Gai FP conf 44* and GIV-Gai AS conf 47941.
CC(O)CNc1c[nH]c(=O)[nH]c1=O (stereo not given) was read as HCMV UL50-53 inh -21 and GIV-Gai inh 100.
Cc1ccc(/C=C2/C(=O)NC(=O)N(C3CCCCC3)C2=O)cc1 was read as HCMV UL50-53 inh -1 and GIV-Gai inh 101.
Cc1cc(N2Cc3ccccc3C2)ccc1/C=C1/C(=O)NC(=O)N(C2CCCCC2)C1=O was read as GIV-Gai inh 87, GIV Gai FP conf 71 and GIV-Gai AS conf 48945.
Screening CCOc1ccc(/C=C/C(=O)NCC(C)C)cc1OCC returned HCMV UL50-53 inh -15 and GIV-Gai inh 110.
CCOC(=O)C(Cc1ccc(O)cc1)NC1=CC(=O)C(=O)c2ccccc21 (stereo not given) was read as GIV-Gai inh 82*, GIV Gai FP conf 53* and GIV-Gai AS conf 32471.
Screening CCOC(=O)C(Cc1ccc(O)cc1)NS(=O)(=O)c1ccc2c(c1)C(=O)c1ccccc1C2=O (stereo not given) returned GIV-Gai inh 101.

Three entries out of the list, ordered by molecular weight, largest number first:
Screening CCOC(=O)C(Cc1ccc(O)cc1)NS(=O)(=O)c1ccc2c(c1)C(=O)c1ccccc1C2=O (stereo not given) returned GIV-Gai inh 101.
Cc1cc(N2Cc3ccccc3C2)ccc1/C=C1/C(=O)NC(=O)N(C2CCCCC2)C1=O was read as GIV-Gai inh 87, GIV Gai FP conf 71 and GIV-Gai AS conf 48945.
CCOC(=O)C(Cc1ccc(O)cc1)NC1=CC(=O)C(=O)c2ccccc21 (stereo not given) was read as GIV-Gai inh 82*, GIV Gai FP conf 53* and GIV-Gai AS conf 32471.

Among those listed so far, 3 have two or more sulfur atoms.
CCSc1nc2ccc(NS(=O)(=O)c3c(C)n[nH]c3C)cc2s1 was read as GIV-Gai inh 108.
Screening Cc1nn(-c2ccccc2)c2sc(C(=O)NC(=S)NC3CCSC3=O)cc12 (stereo not given) returned GIV-Gai inh 85*, GIV Gai FP conf 64 and GIV-Gai AS conf 15795*.
For O=c1[nH]c(CSc2ccccn2)nc2ccsc12 the results were HCMV UL50-53 inh -10.

The list goes on:
Screening O=C(Nc1ccccc1)C1Oc2ccccc2NC1=O (stereo not given) returned GIV-Gai inh 100.
`Cc1cc2c(cc1C)NC(=O)CC(c1ccc(Cl)cc1)=N2` gave HCMV UL50-53 inh -39 and GIV-Gai inh 105.
Screening COc1cccc(Oc2ccnc(-c3cccc(C(=O)NCC4CCCO4)c3)n2)c1 (stereo not given) returned GIV-Gai inh 106.
`COc1ccc2c(c1)N(C)/C(=c1/s/c(=C3/C(=O)N(c4ccccc4)N=C3C)n(C)c1=O)S2` gave HCMV UL50-53 inh -34, GIV-Gai inh 73*, GIV Gai FP conf 75 and GIV-Gai AS conf 34539.
For COc1ccc2c(c1)N(C)/C(=c1/s/c(=C3/C(=O)N(C)C(=S)N3C)n(Cc3ccccc3)c1=O)S2 the results were GIV-Gai inh 111.
For Cc1ccc(C(=O)COC(=O)c2ccc(-c3nnc(-c4ccccc4)o3)cc2)cc1C the results were HCMV UL50-53 inh -8.
Screening COC(=O)CNC(=O)NCCCn1c(C(F)(F)F)nc2cccnc21 returned HCMV UL50-53 inh -8, GIV-Gai inh 80*, GIV Gai FP conf 59* and GIV-Gai AS conf 26853.
`O=C(NCCc1ccccc1)NCCn1c(C(F)(F)F)nc2cccnc21` gave HCMV UL50-53 inh -2 and GIV-Gai inh 116.
Oc1ccc(Cl)cc1C=Nc1cccc2nsnc12 was read as HCMV UL50-53 inh 26, GIV-Gai inh 74*, GIV Gai FP conf 58* and GIV-Gai AS conf 6922*.
For Cc1ccc(C=Nc2cccc3nsnc23)c(O)c1 the results were HCMV UL50-53 inh -33 and GIV-Gai inh 101.
`CC1=CC(=C2C(=O)NC(=S)NC2=O)C=C(C)N1Cc1ccco1` gave HCMV UL50-53 inh -29, GIV-Gai inh 73*, GIV Gai FP conf 48* and GIV-Gai AS conf 2400*.
CC1=CC(=C2C(=O)N(c3ccccc3)N=C2C)C=C(C)N1Cc1ccco1 was read as HCMV UL50-53 inh 3.
CCn1c(C(=O)NCc2ccccn2)cc2c(=O)oc3ccccc3c21 was read as HCMV UL50-53 inh -4 and GIV-Gai inh 102.
`CN(C)c1ccc(C(CNS(=O)(=O)c2ccc(F)cc2F)N(C)C)cc1` (stereo not given) gave HCMV UL50-53 inh 3 and GIV-Gai inh 103.
Screening O=C(CN1CCN(c2ccccc2Cl)CC1)NC(=O)Nc1ccccc1F returned HCMV UL50-53 inh -3.
`CC1=Nc2nc(N3CCOCC3)c(C#N)c3c4c(nc(c23)N1)N(c1cccc(Cl)c1)C(=O)C4` gave HCMV UL50-53 inh -18.
`Cc1ccc2c(c1)c1c3n2CCCNC3CCC1` (stereo not given) gave HCMV UL50-53 inh -11 and GIV-Gai inh 102.
For Cc1ccc2c(c1)c1c3n2C=CNC3CCC1 (stereo not given) the results were HCMV UL50-53 inh -75, GIV-Gai inh 82*, GIV Gai FP conf 52* and GIV-Gai AS conf 25813*.
Screening COC(=O)c1cc(-c2cocc2C=C(C#N)C#N)ccc1Cl returned HCMV UL50-53 inh -9, GIV-Gai inh 52*, GIV Gai FP conf 75 and GIV-Gai AS conf 27781.
For COC(=O)c1cnn(-c2c(Cl)cccc2Cl)c1C=C(C#N)C#N the results were HCMV UL50-53 inh 4 and GIV-Gai inh 97.
COC(=O)c1ccccc1NC(=O)N1CCC(n2cnc3cccnc32)CC1 was read as HCMV UL50-53 inh -2 and GIV-Gai inh 99.
Cc1ccc(-c2c(C(F)(F)F)nn3c(-n4nc(C)cc4C)cc(C)nc23)cc1 was read as HCMV UL50-53 inh 0, GIV-Gai inh 93, GIV Gai FP conf 65 and GIV-Gai AS conf 45290.
For Cc1ccc(-c2c(C(F)(F)F)nn3c(N4CCN(C)CC4)cc(C)nc23)cc1 the results were HCMV UL50-53 inh -17 and GIV-Gai inh 97.
